The text below walks through data of patent publication US6632960B2, “Diaryliodonium salt catalysts made from iodotoluene and a method for preparing them” (Goldschmidt AG, priority 2002, dated 2003).

The data set can be described thus: Iodonium catalyst solubility studies: time to dissolve to a clear solution at 70° C.

Regarding `CCCCCCCCCCCCC(O)COc1ccc([I+]c2ccc(C)cc2)cc1` (centres unmarked) [PCX-2519, [4-(2-hydroxy-1-tetradecyloxy)-phenyl] 4-methylphenyliodonium hexafluorophosphate], under “in EECH (Union Carbide ERL-4221E), moderately nonpolar”, the “time to dissolve to a 3 wt. % solution at 70° C.” value was found to be 2.5 h. Also, the “time to dissolve to a 3 wt % solution at 70° C.” value (in nonpolar Polyset PC1000 disiloxane) was determined as 30 min.
